# Binding of CDR-mutated scFvs to a peptide of the spike HR2 region

Data: MIT Lincoln Laboratory AlphaSeq set, Engelhart et al. 2022, doi:10.1038/s41597-022-01779-4, as distributed in FLAb.

The target is the same throughout: PDVDLGDISGINAS, from the HR2 region of SARS-CoV-2 spike.

Parent: Ab-14, a human scFv built as VH, a (GGGGS)3 linker, VL. Only the CDRs of the heavy chain vary.
VH: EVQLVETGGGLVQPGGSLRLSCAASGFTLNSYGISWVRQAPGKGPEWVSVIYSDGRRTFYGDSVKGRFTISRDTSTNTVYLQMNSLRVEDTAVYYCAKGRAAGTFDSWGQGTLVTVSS
VL: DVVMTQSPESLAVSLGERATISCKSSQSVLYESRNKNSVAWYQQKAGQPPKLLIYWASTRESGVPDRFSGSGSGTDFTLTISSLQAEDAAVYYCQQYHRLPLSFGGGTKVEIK

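The parent was found by panning a naive human phage display library on the peptide. Variants in AAYL49 differ from the parent at up to three CDR positions; double and triple changes were sampled at random. AlphaSeq pools MATa yeast showing the antibodies with MATalpha yeast showing the peptide. After mating in shaken culture at 30 °C for 16 h, diploids were selected and their barcode pairs sequenced. Scores were corrected for input abundance and mapped to Kd with protein pairs of known affinity run in the same pool. There are three technical replicates.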

Positions count from residue 1 of the parent VH; R57D puts D in place of R.
Affinities are written as log10 Kd with Kd in nM; a lower number is a better binder.
The mean shown is taken over the replicates in which the pair was detected.
Where no diploid with the target was found in any replicate, the entry reads "not detected": below detection, most likely a poor binder, though not proof of it.

changes,mean log10 Kd (nM),detected
R57D G103V,not detected,0/3
G26C F59A D62F,5.02,2/3
S63E A102S D106S,4.83,3/3
G26R Y60V G99Y,not detected,0/3
G55T T58K G99P,4.93,1/3
I34Y F59K S107P,5.61,1/3
F27V V50Q R56G,not detected,0/3
Y52N F59H A101K,not detected,0/3
G33Q D54A G99I,not detected,0/3
G55V G103L,not detected,0/3
L29V Y32R T104D,3.62,1/3
F27P Y52P S53T,3.99,1/3
Y52C T58M S63T,not detected,0/3
R56T T58W D62V,4.34,1/3
S35P I51E,not detected,0/3
S31G I51Y,not detected,0/3
I51L V64N S107R,not detected,0/3
G61T A102S T104D,1.25,3/3
G26N K65T A101S,not detected,0/3
G55T T58Q D62T,3.73,2/3
I51Q K65H S107Q,not detected,0/3
T28R G33M R100H,not detected,0/3
N30A Y60S G103T,not detected,0/3
G26C T28Y T58E,not detected,0/3
S31P I34P T104I,4.29,1/3
I34E I51Q A101Q,not detected,0/3
S53V Y60H D62C,not detected,0/3
S53D R100I D106R,not detected,0/3
G99H T104F,not detected,0/3
S35K Y52F S53D,not detected,0/3
G61S D62G K65C,1.79,3/3
R56V Y60D G61I,0.87,3/3
Y32H D54E R56K,4.01,2/3
V50A A102E,not detected,0/3
N30M Y52A A101G,3.59,2/3
V64L A101Q,2.34,3/3
T28E R57F K65Q,2.76,1/3
S35W G55H A101S,not detected,0/3
F27C S31R G103K,4.62,2/3
G26A N30L K65R,1.70,3/3
I51V D62C D106S,not detected,0/3
Y52P Y60I T104S,not detected,0/3
G55S G103T T104G,not detected,0/3
G33F R56L F59D,not detected,0/3
S35Y D54Y,not detected,0/3
S63R V64M,3.98,2/3
D62L R100T F105V,not detected,0/3
L29T K65T R100T,not detected,0/3
G61L G99N A101K,4.91,2/3
R100A A101I G103D,not detected,0/3
Y52T G103S,3.28,2/3
G26T L29E S53Q,3.84,1/3
V50Y Y52I R100T,5.44,1/3
G26F T28A D106P,3.88,1/3
I51W R56A D62T,3.80,1/3
S35C I51K D54W,not detected,0/3
I51F G55D K65V,not detected,0/3
Y60W S63N T104V,not detected,0/3
S35F V50T Y52G,5.92,1/3

Parent in this assay: reference entry 0.65, copy in this library 4.11 (one replicate of three).
Empty control strains, which show no peptide, gave a signal in 15% of pairings with library AAYL49; the median was 4.06 and 95% of these signals were weaker than 2.83. No background was subtracted.